For the experiment, the target named is tabun-hAChE (Homo sapiens, UniProt P22303). Briefly: In vitro reactivation of tabun-hAChE. The conditions noted are these: kr2 = kr/KD.

Compound `O/N=C/c1nc(CCCCCNc2c3c(nc4ccccc24)CCCC3)ccc1O` [Compound 11, 2-[(1E)-(hydroxyimino)methyl]-6-{5-[(1,2,3,4-tetrahydroacridin-9-yl)amino]pentyl}pyridin-3-ol] returned a kr2 of 1 ± 0.12 M⁻¹ s⁻¹.

The record behind these values is US20160272620A1 (priority 2013, published 2016).
